For orientation: Kd means the constant that tells how readily two partners part at equilibrium. Higher therefore signals weaker binding. Broadly, the Ki is a dissociation constant, usually derived from enzyme kinetics or from competition with a known ligand.

Protein sequences, listed by entry. Tags and fused reporters are not part of them.
UniProt Q16539, whole entry, looked up: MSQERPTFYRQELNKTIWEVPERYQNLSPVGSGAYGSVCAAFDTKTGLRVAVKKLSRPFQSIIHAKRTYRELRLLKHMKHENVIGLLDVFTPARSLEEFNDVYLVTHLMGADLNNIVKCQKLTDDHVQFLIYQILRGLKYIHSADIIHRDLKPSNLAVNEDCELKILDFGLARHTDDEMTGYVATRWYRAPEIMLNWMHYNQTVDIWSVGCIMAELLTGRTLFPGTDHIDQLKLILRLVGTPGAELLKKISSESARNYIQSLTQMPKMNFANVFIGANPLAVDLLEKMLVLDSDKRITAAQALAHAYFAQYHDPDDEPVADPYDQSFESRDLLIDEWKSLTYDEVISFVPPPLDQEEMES

This assay deals with MAPK14 (human) (UniProt Q16539). In words: Enzyme Assay.

`CC(C)(C)c1cc(NC(=O)Nc2cccc3ccccc23)n(-c2cccc(C(=O)NCc3ccncc3)c2)n1` displayed a Kd of 10 nM and a Ki of 176 nM. Compound `CCN(CCOC)C(=O)c1cccc(-n2nc(C(C)(C)C)cc2NC(=O)Nc2cccc3ccccc23)c1` gave a Ki of 1390 nM. In turn, `CC(C)(C)c1cc(NC(=O)Nc2cccc3ccccc23)n(-c2cccc(C(=O)NCCc3ccc(N)cc3)c2)n1` yielded a Ki of 1450 nM. As to `CC(C)(C)c1cc(NC(=O)Nc2cccc3ccccc23)n(-c2cccc(C(=O)NCCc3c[nH]c4ccccc34)c2)n1`, the Ki is 1400 nM.

The values are drawn from the Kinase Knowledgebase extract (Sharma et al. 2016).
